# Patent publication US20090214498A1, “ANTIMICROBIAL PEPTIDES AND BACTERIAL STRAINS THAT PRODUCE THEM” (TEAGASC- NATIONAL DIARY PRODUCTS RESEARCH CENTRE, priority 2005, published 2009)
# Test system: E. coli DPC6053
# Experiment: 96-well plate assay (OD600), MIC
# Format: cell-based, Escherichia coli
# Conditions: strain not given
# Method: Preliminary characterisation of the antibacterial activity of peptides and fractions synthesised involved measurement of growth inhibition in a 96-well plate assay (1, 10) and utilisation of an agar diffusion method (16,39). The 96-well plate assay involved the use of controls of each peptide fraction alone (Cecropin P1 and indolicidin), as well as controls without peptide fractions (growth control). A control without bacteria (sterility control) was also included. The plates were incubated for 6 h at 37° C. and culture growth monitored hourly. Minimum inhibitory concentrations (MIC's) were taken as the lowest concentration without visible growth, measured by recording the OD600, in a micro-titre plate reader. A well diffusion assay (16, 40) was used to detect antibacterial activity of purified and chemically synthesised peptides. These assays were performed in either Brain Heart Infusion (BHI), Luria Bertani (LB) or Nutrient agar (NA) seeded with 1 ml of an overnight culture of the indicator strains E. coli DPC6053, L. innocua DPC3306, E. sakazakii 5920 (ATCC12868) or E. sakazakii 8272 (NCTC8155) respectively. […] The sensitivity of a strain to the peptides was scored according to the diameter of the zone of inhibition surrounding the well. The experiments were performed in triplicate and mean zone size calculated. […]
compound,measurement,value
"CC[C@H](C)[C@H](N)C(=O)N[C@@H](CC(C)C)C(=O)N1CCC[C@H]1C(=O)N[C@@H](Cc1c[nH]c2ccccc12)C(=O)N[C@@H](CCCCN)C(=O)N[C@@H](Cc1c[nH]c2ccccc12)C(=O)N1CCC[C@H]1C(=O)N[C@@H](Cc1c[nH]c2ccccc12)C(=O)N[C@@H](Cc1c[nH]c2ccccc12)C(=O)N1CCC[C@H]1C(=O)N[C@@H](Cc1c[nH]c2ccccc12)C(=O)N[C@@H](CCCNC(=N)N)C(=O)N[C@@H](CCCNC(=N)N)C(N)=O [indolicidin, Indolicidin]",MIC of commercially available control peptides,50 µM
